Active and inactive are the calls of the source. No cut-off for these calls is given here.
Columns and labels:
Mu-type opioid receptor = Mu-type opioid receptor (Homo sapiens, UniProt P35372); experiment: Agonist activity at human MOR expressed in CHOK1 cells assessed as […] of cAMP accumulation incubated for 45 mins by HTRF assay relative to DAMGO; type: functional, cell-based
Mus musculus [1] = experiment: Antinociceptive activity in mouse assessed as reduction in mechanical nociception at 25 ug dosed ipsilateral route and concomitant administration of 32 mg/kg, sc sigma1 receptor agonist PRE-08452 and measured after 5 mins post dose by paw pressure pain test
Mus musculus [2] = experiment: Antinociceptive activity in mouse assessed as reduction in mechanical nociception at 25 ug dosed ipsilateral route measured after 5 mins post dose by paw pressure pain test

Chains of the proteins cited; added tags and fusions are not shown.
UniProt P35372, whole entry, looked up: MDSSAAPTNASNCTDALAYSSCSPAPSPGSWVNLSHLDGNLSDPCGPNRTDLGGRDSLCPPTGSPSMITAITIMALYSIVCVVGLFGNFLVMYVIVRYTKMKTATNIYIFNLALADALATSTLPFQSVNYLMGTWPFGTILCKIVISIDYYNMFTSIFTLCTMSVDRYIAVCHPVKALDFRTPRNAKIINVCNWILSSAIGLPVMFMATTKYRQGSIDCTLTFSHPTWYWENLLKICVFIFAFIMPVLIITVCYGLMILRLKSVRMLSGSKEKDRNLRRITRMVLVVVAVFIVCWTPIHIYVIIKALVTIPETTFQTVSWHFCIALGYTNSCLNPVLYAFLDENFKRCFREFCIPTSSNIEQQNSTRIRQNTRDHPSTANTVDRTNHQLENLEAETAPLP

O=C1COC2(CCN(CCc3ccccc3)CC2)CN1c1ccccc1
Emax (Mu-type opioid receptor): 76%

O=C1N(c2cccnc2C(F)(F)F)CC2(CCN(CCc3ccccc3F)CC2)OC12CC2
Activity (Mus musculus [1]): inactive
Activity (Mus musculus [2]): Active

Source: ChEMBL document CHEMBL4354824, “4-Aryl-1-oxa-4,9-diazaspiro[5.5]undecane Derivatives as Dual μ-Opioid Receptor Agonists and σ1 Receptor Antagonists for the Treatment of Pain” (J Med Chem, 2020)
